Laboratory results published in patent US6815440B2, “Cyclic and heterocyclic N-substituted α-iminohydroxamic and -carboxylic acids” (Aventis Pharma Deutschland GmbH, priority 1995, dated 2004).

By UniProt entry, the sequences of proteins in these tests, tags left out. Residues count along the entry.
UniProt P22894, 100-262 limits assumed: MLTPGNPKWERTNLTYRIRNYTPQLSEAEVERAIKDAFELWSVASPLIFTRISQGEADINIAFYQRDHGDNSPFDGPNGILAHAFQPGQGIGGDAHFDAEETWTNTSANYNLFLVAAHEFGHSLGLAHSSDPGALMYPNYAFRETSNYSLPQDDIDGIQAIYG

Target: T1, catalytic domain of neutrophil collagenase (Homo sapiens, UniProt P22894)
T1 construct: enzymatic activity of the catalytic domains of human stomelysine and of neutrophil collagenase; made in house
Assay: Enzyme inhibition, catalytic domain of neutrophil collagenase (fluorogenic substrate)
Assay type: biochemical
Conditions: hydroxamic acids up to and including Example 33; tris/HCl buffer pH=7.5; read-out: Neutrophil collagenase IC 50
Experimental: Preparation and determination of the enzymatic activity of the catalytic domains of human stomelysine and of neutrophil collagenase.
The two enzymes were prepared according to Ye et al., (Biochemistry 31 (1992) 11231-5). To measure the enzyme activity or enzyme inhibitor action, 70 μl of buffer solution and 10 μl of enzyme solution are incubated for 15 minutes with 10 μl of a 10% strength (v/v) aqueous dimethyl sulfoxide solution, which optionally contains the enzyme inhibitor. After addition of 10 μl of a 10% strength (v/v) aqueous dimethyl sulfoxide solution which contains 1 mmol/l of the substrate, the enzyme reaction is monitored by fluorescence spectroscopy (328 nm (ex)/393 nm(em)). The enzyme activity is shown as extinction increase/minute. […] The buffer solution contains 0.05% of Brij (Sigma, Deisenhofen, Germany) and also 0.1 mol/l of tris/HCl, 0.1 mol/l of NaCl, 0.01 mol/l of CaCl2 (pH=7.5) for the determination of the hydroxamic acids up to and including Example 33, or, for the determination of the carboxylic acids from Example 34, 0.1 mol/l of piperazine-N,N′-bis[2-ethanesulfonic acid] pH=6.5.
The enzyme solution contains 5 μg/ml of one of the enzyme domains prepared according to Ye et al. The substrate solution contains 1 mmol/l of the fluorogenic substrate (7-methoxycoumarin-4-yl)acetyl-Pro-Leu-Gly-Leu-3-(2′,4′-dinitrophenyl)-L-2,3-diaminopropionyl-Ala-Arg-NH2 (Bachem, Heidelberg, Germany).

SMILES	IC50 [nM]
O=C(NO)C1Cc2ccccc2CN1S(=O)(=O)c1ccccc1 (stereo not shown) [Example 1]	20
CCOC(=O)Nc1cccc(S(=O)(=O)N2Cc3ccccc3CC2C(=O)NO)c1 (stereo not shown) [Example 5]	300
O=C(NO)C1Cc2ccccc2CN1S(=O)(=O)CCc1ccccc1 (stereo not shown) [Example 17]	20
O=C(NO)[C@H]1Cc2c([nH]c3ccccc23)CN1S(=O)(=O)c1ccc(Oc2ccccc2)cc1 [Example 32, R-2-(4-phenoxybenzenesulfonyl)-1,2,3,4-tetrahydro-9H-pyrido(3,4-b)-indole-3-hydroxamic acid]	7
